Values quoted from earlier work as cited in patent publication US11000710B2, “Composition and method for the generation of chlorine dioxide from the oxidative consumption of biomolecules” (priority 2009, dated 2021).

Settings: Lynch et al. 1997; cited from earlier work

## chlorite [ClO2^−/HClO2]
  pKa: 2.31
